Measured values published in patent US20220226340A1, “CASEIN KINASE 1 INHIBITORS FOR USE IN THE TREATMENT OF DISEASES RELATED TO DUX4 EXPRESSION SUCH AS MUSCULAR DYSTROPHY AND CANCER” (Facio Intellectual Property B.V., priority 2019, published 2022).
Like-named read-outs stand apart in the source and are kept apart here.

Chains of the proteins cited; added tags and fusions are not shown. Lines headed by an entry give the natural chain unless they say otherwise; changes in a name come on top.
UniProt P48730: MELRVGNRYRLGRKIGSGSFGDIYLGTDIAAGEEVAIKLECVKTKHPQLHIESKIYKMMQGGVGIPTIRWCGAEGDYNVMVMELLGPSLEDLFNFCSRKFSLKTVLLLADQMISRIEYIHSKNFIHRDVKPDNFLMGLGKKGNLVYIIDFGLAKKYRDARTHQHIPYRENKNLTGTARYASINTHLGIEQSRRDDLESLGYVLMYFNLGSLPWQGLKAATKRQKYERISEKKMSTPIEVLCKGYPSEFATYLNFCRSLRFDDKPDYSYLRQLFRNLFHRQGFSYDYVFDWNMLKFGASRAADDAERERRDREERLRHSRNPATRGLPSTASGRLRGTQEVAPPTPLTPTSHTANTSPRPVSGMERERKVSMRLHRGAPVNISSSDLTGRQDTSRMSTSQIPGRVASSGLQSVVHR
UniProt P49674: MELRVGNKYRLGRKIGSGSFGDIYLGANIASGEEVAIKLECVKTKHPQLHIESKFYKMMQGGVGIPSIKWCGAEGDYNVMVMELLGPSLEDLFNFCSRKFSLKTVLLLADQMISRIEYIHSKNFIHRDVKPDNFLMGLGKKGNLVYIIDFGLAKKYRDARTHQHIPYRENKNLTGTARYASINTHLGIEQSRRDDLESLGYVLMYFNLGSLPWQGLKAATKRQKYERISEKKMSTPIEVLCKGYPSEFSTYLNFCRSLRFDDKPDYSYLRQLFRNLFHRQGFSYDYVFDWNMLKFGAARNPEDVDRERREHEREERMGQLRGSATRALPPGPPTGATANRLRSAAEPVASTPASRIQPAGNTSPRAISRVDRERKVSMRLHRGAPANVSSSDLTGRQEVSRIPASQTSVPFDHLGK

Experiments:
CK1δ = CK1δ (Homo sapiens, UniProt P48730); assay: CK1δ inhibition IC50; format: biochemical; settings: read-out: CK1 d IC50
CK1ε = CK1ε (Homo sapiens, UniProt P49674); assay: CK1ε inhibition IC50; format: biochemical; settings: read-out: CK1 e IC50

## CN1Cc2nccc(-c3cn(C)nc3-c3ccc(F)cc3)c2C1=O [Nr. 5]
CK1δ; Table 3
  IC50: 30.7 nM
CK1δ; Table 4
  IC50: 30.7 nM
CK1ε; Table 3
  IC50: 83.6 nM
CK1ε; Table 4
  IC50: 83.6 nM
